From patent US20060172418A1, “Hypercoiling polymers and their use in cellular delivery” (priority 2002, published 2006)
Where two headings read alike, the source gives them in different places.

Columns and labels:
MCF7 cells = settings: 5 days
Procedure: (§1) Subsequently, a standard MTT (3-(4,5-dimethylthiazol-2-yl)-2,5-diphenyl-2H-tetrazolium bromide) assay was performed in order to assess cell viability.
(§2) The total DMSO concentration was adjusted to 1% by volume, and the cells incubated at 37° C. under a 5% CO2 atmosphere for 5 days. […] Subsequently, a standard MTT assay was performed in order to assess cell viability.

MCF7/MXR cells = settings: 5 days
Procedure: as §1, §2

Measured: cytotoxic effect

poly(lysine iso-phthalamide-co-lysine DOX iso-phthalamide) [polymer-conjugated doxorubicin]
significant cytotoxic effects: MCF7 cells; 1% by volume of DMSO | MCF7 cells; without DMSO | MCF7/MXR cells; 1% by volume of DMSO | MCF7/MXR cells; without DMSO
